Assays:
[1] = molecular target: Fibroblast growth factor receptor 1 (Homo sapiens) (UniProt P11362); settings: dose 10.0 nM
[2] = system: Fibroblast growth factor receptor 4 (Homo sapiens), P22455 [V550L]; settings: dose 50.0 nM
[3] = system: Fibroblast growth factor receptor 4 (Homo sapiens), P22455 [V550L]; settings: dose 500.0 nM

Amino acid sequences for entries named in this document (tags omitted).
UniProt P11362, whole entry, looked up: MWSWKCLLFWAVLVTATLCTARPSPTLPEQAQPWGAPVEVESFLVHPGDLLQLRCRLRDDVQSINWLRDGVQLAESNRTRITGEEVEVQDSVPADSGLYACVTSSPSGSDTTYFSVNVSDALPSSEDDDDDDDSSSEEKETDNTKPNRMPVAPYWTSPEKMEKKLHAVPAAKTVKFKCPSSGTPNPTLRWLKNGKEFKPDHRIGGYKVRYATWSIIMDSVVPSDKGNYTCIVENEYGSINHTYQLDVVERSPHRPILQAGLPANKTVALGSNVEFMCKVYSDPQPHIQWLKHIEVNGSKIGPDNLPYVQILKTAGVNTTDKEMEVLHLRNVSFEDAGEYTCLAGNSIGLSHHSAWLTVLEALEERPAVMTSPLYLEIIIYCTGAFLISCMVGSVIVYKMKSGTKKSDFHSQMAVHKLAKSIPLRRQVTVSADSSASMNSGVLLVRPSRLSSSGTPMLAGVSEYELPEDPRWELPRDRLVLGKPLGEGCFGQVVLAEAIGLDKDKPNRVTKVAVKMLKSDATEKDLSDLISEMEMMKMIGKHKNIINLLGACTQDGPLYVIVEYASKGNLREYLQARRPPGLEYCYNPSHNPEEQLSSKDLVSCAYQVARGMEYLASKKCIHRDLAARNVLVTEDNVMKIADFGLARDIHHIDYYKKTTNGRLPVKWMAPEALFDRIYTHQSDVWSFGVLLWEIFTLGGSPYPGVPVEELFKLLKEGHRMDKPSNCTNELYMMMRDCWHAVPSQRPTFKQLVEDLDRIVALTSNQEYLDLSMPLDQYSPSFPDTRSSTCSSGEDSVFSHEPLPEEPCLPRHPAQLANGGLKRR
Fibroblast growth factor receptor 4 (Homo sapiens), P22455, UniProt P22455, whole entry V550L: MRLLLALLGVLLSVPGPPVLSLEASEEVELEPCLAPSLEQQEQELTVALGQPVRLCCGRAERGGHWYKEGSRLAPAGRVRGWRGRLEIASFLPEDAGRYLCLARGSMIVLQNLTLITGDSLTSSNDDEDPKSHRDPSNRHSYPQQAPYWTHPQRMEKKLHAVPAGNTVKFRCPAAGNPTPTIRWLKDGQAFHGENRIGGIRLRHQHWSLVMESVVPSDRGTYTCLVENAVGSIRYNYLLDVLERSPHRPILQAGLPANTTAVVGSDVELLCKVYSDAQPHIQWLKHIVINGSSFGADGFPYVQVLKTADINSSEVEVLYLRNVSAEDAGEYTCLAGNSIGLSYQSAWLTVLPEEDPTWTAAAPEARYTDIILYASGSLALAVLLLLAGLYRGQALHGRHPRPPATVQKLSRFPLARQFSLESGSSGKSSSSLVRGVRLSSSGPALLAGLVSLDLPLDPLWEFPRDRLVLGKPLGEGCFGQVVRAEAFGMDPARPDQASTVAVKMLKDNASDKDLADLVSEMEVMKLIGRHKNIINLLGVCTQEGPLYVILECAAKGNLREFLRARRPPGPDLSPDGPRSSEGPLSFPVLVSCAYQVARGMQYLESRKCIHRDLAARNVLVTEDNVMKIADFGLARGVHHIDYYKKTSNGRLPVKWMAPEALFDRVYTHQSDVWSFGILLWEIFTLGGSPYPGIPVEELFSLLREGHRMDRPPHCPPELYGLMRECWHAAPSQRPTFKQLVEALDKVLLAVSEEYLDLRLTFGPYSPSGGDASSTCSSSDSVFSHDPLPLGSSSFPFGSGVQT

inhibition [1]: 0%
inhibition [2]: 0%
inhibition [3]: 17%
SMILES: C=CC(=O)N[C@H]1CCOC[C@H]1Nc1ncc2cc(-c3c(Cl)c(OC)cc(OC)c3Cl)ccc2n1 [FISOGATINIB]
